High-throughput results from PubChem BioAssay.
ARFGAP1 inhibitor: inhibits rat ARF GTPase activating protein 1. Q62848. AID 651572. hit rate 0.26% among 360,000. inhibition, % at 16.5 µM. Arfgap1-stimulated ARF1 GTP hydrolysis, GDP FP detection;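 active = inhibition above a per-plate limit, mean inhibition of low control wells plus 3 SD, cut at about 25% in these data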;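 also: 0% = DMSO wells with enzyme and 100% = wells lacking Arfgap1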
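system = rat Arfgap1 catalytic domain, aa 1-136 | technique = FP, GDP Alexa 633 tracer displaced from anti-GDP antibody, 620/688 nm | compound = one concentration, 16.5 µM, DMSO 1.26% | medium = HEPES-based buffer, pH 7.5 | timing = compound-enzyme preincubation 20 min, reaction 120 min, detection 60 min, 25 °C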
MC4R antag cAMP: blocks human MC4R cAMP signaling | P32245 | MC4R-expressing cells, MTII-stimulated cAMP, LANCE TR-FRET | inhibition, % at 6.5 µM | hit rate 0.48% among 360,000;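 active = inhibition above its plate's cutoff, the mean of tested wells on that plate plus 3 SD, cut at about 29% in these data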;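 also: 0% = Melanotan II alone and 100% = Melanotan II plus saturating MCL0020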
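System – human MC4R-expressing U2OS cells · Also added – Melanotan II · Dosing – one concentration, 6.5 µM nominal · Timing – 30-min compound, 1-h challenge, 1-h detection, room temperature · Measured by – Eu-cAMP/anti-cAMP TR-FRET, emission 671 nm · Replicates – singlicate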
NRP1-CendR mod: modulators of CendR peptide binding to human neuropilin-1 | O14786 | FAM-RPARPAR peptide binding to NRP-1, fluorescence polarization | inhibition, % at 25 µM | hit rate 0.85% among 360,000 | AID 602438;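 active = inhibition or corrected inhibition above about 18%, plus a signal ratio from 0.5 to 1.5, limit read from the data, passing the limit was not always enough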
UUG fidelity: modulators of yeast start codon fidelity, primary screen, whole organism, S. cerevisiae, single point, plate reader. S. cerevisiae UUG-firefly luciferase reporter, luminescence/redox ratio. activity score, % at 18.7 µM. hit rate 0.13% among 350,000;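 active = replicate mean at a twofold rise or more, about +100% in these data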;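 also: firefly luciferase made from a UUG start codon reports start codon fidelity; reporter light over untreated wells divided by growth signal over untreated wells; some hits fall short of that in this replicate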
ASAP1 GAP inh: inhibitors of human ASAP1 ArfGAP activity | AID 624377 | hit rate 0.19% among 360,000 | ASAP1-stimulated ARF1 GTP hydrolysis, GDP FP detection | inhibition, % at 16.5 µM | Q9ULH1; in the data active = inhibition above about 25%;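 also: 0% = vehicle with enzyme and substrate and 100% = no enzyme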
MC4R barr agon: activates human MC4R beta-arrestin recruitment. activation, % at 8.9 µM. hit rate 0.98% among 360,000. U2OS MC4R beta-arrestin complementation, luminescence; percent of melanotan II response, DMSO zero. AID 540308. P32245;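 active = activation above a per-plate cutoff, the mean activation of sample wells on that plate plus 3 SD, cut at about 8% in these data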
MC4R barr conf: human MC4R beta-arrestin agonism confirmation; U2OS MC4R beta-arrestin recruitment, luminescence; scaled DMSO 0%, Melanotan II 100%; hit rate 31% among 2,400; shares compounds with MC4R barr agon; activation, % at 8.9 µM;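 active = mean activation across replicates above the hit cutoff set in the earlier primary screen, cut at about 8% in these data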
MOR-DOR barr ag: activates mu-delta opioid heterodimer, MC4R agonist counter-screen | activation, % at 9.2 µM | U2OS PathHunter beta-arrestin, beta-gal luminescence; percent of deltorphin B response, DMSO zero | hit rate 5.8% among 2,400 | shares compounds with MC4R barr agon;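 active = mean activation across replicates exceeds the hit threshold derived in the earlier primary screen, cut at about 18% in these data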;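 also: 100% = deltorphin B at 0.9 µM final and 0% = DMSO alone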
* = called active by the depositor. Only some compounds are listed: those with a hit (about 2.3% of all), similar ones and a draw of the others.

`Cc1nc(NC(=O)/C=C/c2ccccc2)sc1C(=O)Nc1cccc(Cl)c1` gave ARFGAP1 inhibitor 10, MC4R antag cAMP 0, NRP1-CendR mod 2, UUG fidelity -7, ASAP1 GAP inh -4, MC4R barr agon 12*, MC4R barr conf 7 and MOR-DOR barr ag 3.
C[C@@H]1CN([C@@H](C)CO)C(=O)c2cc(NC(=O)CCC(F)(F)F)ccc2O[C@@H]1CN(C)C was read as UUG fidelity -2.
`CC(C)NC(=O)N(C)C[C@H]1Oc2ccc(NC(=O)Nc3ccc4c(c3)OCO4)cc2CC(=O)N([C@H](C)CO)C[C@H]1C` gave UUG fidelity 0.
`O=c1c2ccccc2nc(SCc2nc3ccccc3s2)n1Cc1ccco1` gave ARFGAP1 inhibitor 1, MC4R antag cAMP 21, NRP1-CendR mod 2, UUG fidelity -15, ASAP1 GAP inh -3, MC4R barr agon 11*, MC4R barr conf -2 and MOR-DOR barr ag 5.
Cc1cc(C)cc(OC(=O)CCN2C(=O)c3ccccc3C2=O)c1 was read as ARFGAP1 inhibitor 6, MC4R antag cAMP 0, NRP1-CendR mod -6, UUG fidelity -16, ASAP1 GAP inh 13 and MC4R barr agon 3.
Screening Cc1ccc(NC(=O)c2ccc(OC(=O)CCN3C(=O)c4ccccc4C3=O)cc2)cc1 returned ARFGAP1 inhibitor 4, MC4R antag cAMP 6, NRP1-CendR mod -12, UUG fidelity -17, ASAP1 GAP inh -7, MC4R barr agon 12*, MC4R barr conf 2 and MOR-DOR barr ag 3.
`C[C@H]1CN([C@@H](C)CO)C(=O)c2cc(NS(=O)(=O)c3ccc(Cl)cc3)ccc2O[C@H]1CN(C)Cc1ccc(C(=O)Nc2ccccc2N)cc1` gave UUG fidelity 37.
C[C@H]1CN([C@@H](C)CO)S(=O)(=O)c2ccc(C#CC3CC3)cc2O[C@@H]1CN(C)Cc1cccnc1 was read as UUG fidelity 3.
For CN(C)C(=O)C[C@@H]1CC[C@H](NC(=O)c2ccc(F)cc2)[C@H](CO)O1 the results were UUG fidelity -13.
CN(C)S(=O)(=O)c1cccc(NC(=O)c2ccccc2OCc2ccc(F)cc2)c1 was read as ARFGAP1 inhibitor 3, MC4R antag cAMP 4, NRP1-CendR mod -6, UUG fidelity -11, ASAP1 GAP inh 3 and MC4R barr agon 3.
Screening CC(=O)c1cccc(NC(=O)c2ccccc2OCc2ccc(F)cc2)c1 returned ARFGAP1 inhibitor 16, MC4R antag cAMP -10, NRP1-CendR mod 4, UUG fidelity -2, ASAP1 GAP inh -15, MC4R barr agon 14*, MC4R barr conf -1 and MOR-DOR barr ag 4.
`COc1ccc(Cc2nnc(NC(=O)Nc3ccccc3F)s2)cc1` gave ARFGAP1 inhibitor 6, MC4R antag cAMP 1, NRP1-CendR mod -1, UUG fidelity -2, ASAP1 GAP inh 13 and MC4R barr agon 6.
COc1ccc(Cc2nnc(NC(=O)Nc3ccccc3F)s2)cc1OC was read as ARFGAP1 inhibitor 1, MC4R antag cAMP -2, NRP1-CendR mod -19, UUG fidelity -6, ASAP1 GAP inh -6, MC4R barr agon 14*, MC4R barr conf 4 and MOR-DOR barr ag 6.
`CCCNC(=O)N1C[C@@H]2[C@H](c3ccccc31)[C@@H](CO)N2C(=O)Nc1ccccc1` gave UUG fidelity -1.
Screening Cc1ccc(N=Nc2ccc(O)c3ncccc23)cc1 returned ARFGAP1 inhibitor -6, MC4R antag cAMP 16, NRP1-CendR mod -9, ASAP1 GAP inh -8, MC4R barr agon 11*, MC4R barr conf -1 and MOR-DOR barr ag 0.
For Cc1ccc(N=Nc2ccc(O)c3ncccc23)cc1C the results were ARFGAP1 inhibitor 9, MC4R antag cAMP 15, NRP1-CendR mod 14, UUG fidelity -7, ASAP1 GAP inh -6 and MC4R barr agon -4.

3 compounds from above, sorted by count of non-hydrogen atoms, highest first:
C[C@H]1CN([C@@H](C)CO)S(=O)(=O)c2ccc(C#CC3CC3)cc2O[C@@H]1CN(C)Cc1cccnc1 was read as UUG fidelity 3.
Screening Cc1ccc(NC(=O)c2ccc(OC(=O)CCN3C(=O)c4ccccc4C3=O)cc2)cc1 returned ARFGAP1 inhibitor 4, MC4R antag cAMP 6, NRP1-CendR mod -12, UUG fidelity -17, ASAP1 GAP inh -7, MC4R barr agon 12*, MC4R barr conf 2 and MOR-DOR barr ag 3.
COc1ccc(Cc2nnc(NC(=O)Nc3ccccc3F)s2)cc1OC was read as ARFGAP1 inhibitor 1, MC4R antag cAMP -2, NRP1-CendR mod -19, UUG fidelity -6, ASAP1 GAP inh -6, MC4R barr agon 14*, MC4R barr conf 4 and MOR-DOR barr ag 6.
